From ChEMBL document CHEMBL5360566, “Design, synthesis and biological evaluation of novel indolin-2-one derivatives as potent second-generation TRKs inhibitors” (Eur J Med Chem, 2023) come the findings set out here.

Amino acid sequences for entries named in this document (tags omitted).
UniProt Q16620, whole entry, looked up: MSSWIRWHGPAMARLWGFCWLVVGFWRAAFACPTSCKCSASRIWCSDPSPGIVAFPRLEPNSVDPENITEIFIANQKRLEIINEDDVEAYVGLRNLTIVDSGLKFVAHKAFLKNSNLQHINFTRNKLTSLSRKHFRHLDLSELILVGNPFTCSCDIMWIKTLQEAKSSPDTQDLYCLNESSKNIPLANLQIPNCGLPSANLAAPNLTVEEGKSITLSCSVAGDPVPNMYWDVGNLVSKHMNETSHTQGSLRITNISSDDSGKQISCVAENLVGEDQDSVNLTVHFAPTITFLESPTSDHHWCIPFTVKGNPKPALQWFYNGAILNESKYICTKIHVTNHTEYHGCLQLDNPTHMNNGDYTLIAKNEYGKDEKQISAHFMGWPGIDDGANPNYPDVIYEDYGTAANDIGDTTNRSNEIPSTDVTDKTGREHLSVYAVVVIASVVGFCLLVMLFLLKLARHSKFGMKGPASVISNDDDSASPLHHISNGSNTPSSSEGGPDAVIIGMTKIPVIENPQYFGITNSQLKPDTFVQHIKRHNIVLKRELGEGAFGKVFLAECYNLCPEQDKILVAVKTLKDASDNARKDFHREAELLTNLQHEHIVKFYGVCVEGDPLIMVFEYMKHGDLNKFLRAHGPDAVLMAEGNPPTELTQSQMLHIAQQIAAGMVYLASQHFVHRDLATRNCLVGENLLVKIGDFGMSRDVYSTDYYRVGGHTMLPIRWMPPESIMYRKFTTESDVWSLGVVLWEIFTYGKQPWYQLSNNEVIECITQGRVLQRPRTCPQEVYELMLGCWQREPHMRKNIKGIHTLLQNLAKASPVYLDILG

For this experiment, the target named is BDNF/NT-3 growth factors receptor (Homo sapiens) (UniProt Q16620). As to the kind of experiment: Inhibition of human recombinant His-tagged TRKB (526 to 838 residues) expressed in insect cells at 1 uM relative to control. To be noted: Insect cell.

The source made the active and inactive calls. The calls are words filed in the database; no cut-off is given here.

Consider `COc1ccc(F)cc1CNc1ccc2c(c1)/C(=C/c1cnc[nH]1)C(=O)N2`, for which the inhibition result was “Active”.
